Experimental findings from publication PMC8524670 (Pharmacology Research & Perspectives, 2021) are described below.

Amino acid sequences for entries named in this document (tags omitted). Residues count along the entry.
UniProt P33261, whole entry: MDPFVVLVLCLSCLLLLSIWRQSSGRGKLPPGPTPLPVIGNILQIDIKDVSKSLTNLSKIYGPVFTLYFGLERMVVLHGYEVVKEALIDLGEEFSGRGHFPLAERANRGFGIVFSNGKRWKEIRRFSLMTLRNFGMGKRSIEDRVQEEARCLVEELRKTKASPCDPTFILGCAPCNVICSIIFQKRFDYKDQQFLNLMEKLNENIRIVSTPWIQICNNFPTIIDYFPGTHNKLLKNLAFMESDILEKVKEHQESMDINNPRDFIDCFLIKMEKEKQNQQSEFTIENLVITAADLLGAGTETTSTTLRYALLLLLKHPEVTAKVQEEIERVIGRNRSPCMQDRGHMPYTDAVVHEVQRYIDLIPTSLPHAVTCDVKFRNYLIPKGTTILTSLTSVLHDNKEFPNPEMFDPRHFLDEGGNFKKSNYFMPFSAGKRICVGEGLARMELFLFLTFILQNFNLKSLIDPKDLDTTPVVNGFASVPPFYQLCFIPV
UniProt P08684, 2-503: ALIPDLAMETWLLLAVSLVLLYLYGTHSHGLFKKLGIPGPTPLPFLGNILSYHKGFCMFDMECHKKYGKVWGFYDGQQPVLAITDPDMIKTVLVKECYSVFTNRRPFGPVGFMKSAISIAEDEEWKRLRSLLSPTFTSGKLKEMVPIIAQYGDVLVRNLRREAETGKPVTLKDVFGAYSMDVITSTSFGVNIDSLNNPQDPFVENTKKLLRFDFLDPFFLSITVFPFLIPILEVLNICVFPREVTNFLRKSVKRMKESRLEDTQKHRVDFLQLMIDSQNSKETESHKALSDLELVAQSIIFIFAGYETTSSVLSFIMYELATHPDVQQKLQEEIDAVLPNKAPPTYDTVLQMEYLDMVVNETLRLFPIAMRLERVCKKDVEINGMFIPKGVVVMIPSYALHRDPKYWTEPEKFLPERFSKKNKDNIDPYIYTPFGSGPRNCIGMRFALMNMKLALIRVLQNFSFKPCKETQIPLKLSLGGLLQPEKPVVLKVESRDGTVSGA

Read-outs that look alike come from different tables or passages of the source.

One experiment deals with CYP2C19 (Homo sapiens, UniProt P33261). Put plainly: CYP reversible inhibition in HLMs.
Another experiment has as its target CYP3A (Homo sapiens, UniProt P08684). The experiment can be described thus: CYP reversible inhibition in HLMs.

One may read the Ki as a dissociation constant, usually derived from enzyme kinetics or from competition with a known ligand. In the case of `C=CC(=O)N1CCC([C@@H]2CCNc3c(C(N)=O)c(-c4ccc(Oc5ccccc5)cc4)nn32)CC1` [zanubrutinib], the Ki stood at 3 µM on CYP2C19; 3.79 µM on CYP2C19 (Ki, S-mephenytoin, Ki = IC50/2); 5.6 µM on CYP3A; 7.15 µM at CYP3A (Ki, midazolam, Ki = IC50/2); 30.3 µM at CYP3A (Ki, testosterone, Ki = IC50/2); 23.9 µM at CYP3A (Kiu, testosterone, unbound Ki).
